Laboratory results taken from ChEMBL document CHEMBL1938335, “2-(4-Methylsulfonylaminophenyl) propanamide TRPV1 antagonists: Structure-activity relationships in the B and C-regions” (Bioorg Med Chem, 2012).
pKi: −log10 of the molar value.

Chains of the proteins cited; added tags and fusions are not shown.
UniProt O35433, whole entry: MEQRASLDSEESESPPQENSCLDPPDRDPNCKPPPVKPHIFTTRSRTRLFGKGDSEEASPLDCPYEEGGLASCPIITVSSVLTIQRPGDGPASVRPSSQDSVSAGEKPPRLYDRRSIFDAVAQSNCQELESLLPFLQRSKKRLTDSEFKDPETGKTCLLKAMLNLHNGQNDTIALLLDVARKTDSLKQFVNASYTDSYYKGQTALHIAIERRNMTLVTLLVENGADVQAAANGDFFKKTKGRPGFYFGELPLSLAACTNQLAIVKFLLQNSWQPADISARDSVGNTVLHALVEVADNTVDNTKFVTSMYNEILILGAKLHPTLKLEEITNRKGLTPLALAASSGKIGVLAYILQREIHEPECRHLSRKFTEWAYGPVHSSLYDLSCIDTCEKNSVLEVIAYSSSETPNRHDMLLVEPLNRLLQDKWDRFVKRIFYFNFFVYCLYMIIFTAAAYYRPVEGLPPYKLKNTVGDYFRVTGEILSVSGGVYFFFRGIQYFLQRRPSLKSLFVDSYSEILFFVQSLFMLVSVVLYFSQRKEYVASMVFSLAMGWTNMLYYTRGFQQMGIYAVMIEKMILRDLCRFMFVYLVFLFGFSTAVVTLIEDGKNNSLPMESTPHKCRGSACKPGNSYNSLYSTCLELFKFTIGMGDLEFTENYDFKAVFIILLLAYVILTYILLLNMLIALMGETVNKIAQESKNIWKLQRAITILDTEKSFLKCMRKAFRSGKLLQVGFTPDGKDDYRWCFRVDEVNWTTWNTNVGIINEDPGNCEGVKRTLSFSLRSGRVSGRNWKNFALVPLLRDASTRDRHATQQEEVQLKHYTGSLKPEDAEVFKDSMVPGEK

Experiments:
[1] = target: T1, Transient receptor potential cation channel subfamily V member 1 (Rattus norvegicus, UniProt O35433); experiment: Displacement of [3H]RTX from rat TRPV1 expressed in CHO cells; format: cell-based
Outline: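 Competitive binding against [3H]RTX on rat TRPV1 heterologously expressed in CHO cells. Affinity reported as Ki (nM). Values are mean ± SEM from 3 or more experiments.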

[2] = target: T1, Transient receptor potential cation channel subfamily V member 1; experiment: Antagonist activity at rat TRPV1 expressed in CHO cells by 45Ca2+ uptake assay

CC(C(=O)NC/C=C/c1ccc(Cl)cc1)c1ccc(NS(C)(=O)=O)c(F)c1 (configuration not stated)
pKi [1]: 6.05 | pKi [2]: 6.42
